# Measured affinities in a library of Ab-95 light chain variants

Values reported by Engelhart et al. 2022, doi:10.1038/s41597-022-01779-4 (FLAb copy).

All variants were tested on one target, the spike HR2 peptide PDVDLGDISGINAS (SARS-CoV-2).

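Phage display of a naive human antibody library on the peptide gave the parent. Variants in AAYL52 differ from the parent at up to three CDR positions; double and triple changes were sampled at random. The scFvs were displayed on barcoded MATa yeast, the peptide on MATalpha yeast. After mating in shaken culture at 30 °C for 16 h, diploids were selected and their barcode pairs sequenced. Each replicate has its own calibration line, from reference interactions of the BCL2 family. The assay was run in three technical replicates.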

Each scFv is VH, the linker GGGGSGGGGSGGGGS, VL, as in the parent Ab-95, and differs from it in the CDRs of the light chain only.
VH: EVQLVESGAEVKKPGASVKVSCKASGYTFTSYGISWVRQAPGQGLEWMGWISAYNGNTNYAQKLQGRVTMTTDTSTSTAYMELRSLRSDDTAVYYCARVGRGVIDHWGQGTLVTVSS
VL: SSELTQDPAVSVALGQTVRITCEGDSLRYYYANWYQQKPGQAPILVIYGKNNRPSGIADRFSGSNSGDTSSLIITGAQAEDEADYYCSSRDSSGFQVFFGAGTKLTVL

Variants are written as CDR1, CDR2 and CDR3 of the light chain (limits as in the source). Parent: EGDSLRYYYAN, GKNNRPS, SSRDSSGFQVF. Every variant below is changed at F95 of the VL (sequential numbering). Kd is apparent (estimated from mating counts) and averaged on the log scale over replicates with a signal. Smaller is tighter. "not detected" means that the variant was in the library but no mating with the target was seen in any replicate; the authors take this as a sign of poor binding, and no number exists. As a blank, each scFv also met three strains without target: over library AAYL52, 28% of these pairings were detected, typically at 8.2 µM and seldom below 800 nM. Parent in this assay: reference entry 200 nM, copy in this library 180 nM.

CDR-L1	CDR-L2	CDR-L3	Kd (apparent)	detected
EGDSLRYYYAN	GKNNRPS	SSRDSEGLQVE	not detected	0/3
EGDSLRPYYAN	GKNMRPS	SSRDSSGGQVF	880 nM	3/3
VGDSWRYYYAN	GKNNRPS	SSRDSSGNQVF	380 nM	3/3
EGDSLTYYYAN	GKNNRPS	SSRDISGPQVF	7.7 µM	2/3
EGDSLRYYYNN	GKNNRPS	SDRDSSGRQVF	1.0 µM	3/3
EGDSLRYYYAN	LKNCRPS	SSRDSSGDQVF	not detected	0/3
EGDSLRYYYAN	GKNNRPS	SSRDSSGDQVF	380 nM	3/3
EGDSLRYYYAN	GKNNRPS	SSRDSSGAQVF	39 nM	3/3
EGESLRYYYAN	GKNNRPS	SSRDSIGLQVF	230 nM	3/3
EGDSLRYHYAN	GKNNRPS	SSRDSSGDQVG	5.1 µM	1/3
EGDSLKYYYAN	GKNNVPS	SSRDSSGCQVF	9.2 µM	1/3
EGDSLRYYYAN	GKNNRPS	SSRDSNGVQVF	660 nM	2/3
EGDSLIYYYAN	GKNNRPS	SSRDSSCHQVF	990 nM	1/3
EGDSLRQYYAN	GKNNRPS	SSRDSSGEQVF	280 nM	3/3
EGDSLRYYYAN	GKNNRPS	SSRDSSGHNYF	610 nM	3/3
EGDSLWYYYAN	GKNNRPS	SSRSSSGIQVF	not detected	0/3
EGDSLRYYYAN	GHNNRPS	SSRDSSGQQVF	220 nM	3/3
EGDSLRYYYAN	GKPNRPS	SSRDSSGYQVL	not detected	0/3
EGDSLRYYYAI	GKNNRPS	SSRDSSPKQVF	210 µM	1/3
EGDSLRYCYAN	GKNNRPS	SSRDRSGMQVF	290 nM	3/3
EGDSLRYFYAN	GKNNRPS	GSRDSSGNQVF	13 µM	3/3
EGDSLRYYYAN	GKNNRPS	SSRDSSGNKVF	210 nM	3/3
EGDSLRYYYAN	IKNNRPS	SSRDSSGTQVF	71 µM	1/3
EGDSLMYQYAN	GKNNRPS	SSRDSSGMQVF	17 nM	3/3
EGDSLRYYYAM	GKMNRPS	SSRDSSGMQVF	30 µM	1/3
EGDSLRYYYAN	GKWNRPS	SSRDSSGGHVF	3.8 µM	1/3
EGDSLRYYYAN	GKNNYPF	SSRDSSGIQVF	23 µM	2/3
EGDSLRYMYAN	GKNNRPS	SSRDSSGCQVF	11 µM	3/3
EGDSLRYYYAN	GKNNRPS	MLRDSSGYQVF	130 nM	3/3
EGDSLRYWYWN	GKNNRPS	SSRDSSGTQVF	280 nM	3/3
EGDSLRYYYAN	GKNNRIS	SSRDSSGEQEF	not detected	0/3
EGDSLRYYYAN	GKNNRPS	SSMDSSGPQQF	2.5 µM	3/3
EGDSLRYYYAN	GKNNRPM	PSRDSSGIQVF	850 nM	3/3
EGDSLRYYYAN	GKNNRAS	SSRDSSGLQVF	94 µM	2/3
EGDSLDYYYAN	GKNNRPS	SSADSSGYQVF	1.1 µM	3/3
EGDSLRYYYAN	GPNPRPS	SSRDSSGNQVF	23 µM	3/3
EGDSLRYYYAN	GFNNRPS	SSRDSSGKQVF	1.6 µM	3/3
EFDSLRYYYAN	GMNNRPS	SSRDSSGQQVF	920 nM	3/3
EGDSLRYYYAN	GKNNRPH	SIRDSSGSQVF	8.0 µM	2/3
EGDSLRYYYAN	GKNNRPS	SSVDSSGNPVF	30 µM	1/3
EGDSLRYYYAN	GKNNRPN	SSRYSSGHQVF	830 nM	3/3
EGDSLRYYYAN	GKNNRCS	SSRDSNGPQVF	3.1 µM	1/3
EGDSLRVYYAN	WKNNRPS	SSRDSSGDQVF	not detected	0/3
EGDSLRYYYAN	NKNNRPS	SSRDSFGLQVF	350 nM	3/3
EGDSLRYYYAN	GKNNRPS	SSRTSWGWQVF	47 µM	1/3
EGDSLRYYYAN	GKNNRNG	SSRDSSGDQVF	3.8 µM	1/3
EGDSLRYYYAN	GKNNRPM	SSRDSSGLQLF	420 nM	3/3
EGDSLRYYYAN	GKHNRRS	SSRDSSGSQVF	17 µM	3/3
EGPSLRYYYAN	TKNNRPS	SSRDSSGYQVF	1.8 µM	2/3
EGDSLRYYYAN	GKNNRPS	SSRYSSGIAVF	20 µM	2/3
EGDSLRYYYAN	GKNNIPS	SSRDSSGCQVV	3.0 µM	3/3
EGDSLRYYYAN	GKNTRPS	SSRDQSGGQVF	440 nM	3/3
EGDSLRYYYAN	GKSNRPS	SSRVSSGTQVF	1.3 µM	3/3
EGDSLRYYYAN	GKNNRPS	SSDDSSGYIVF	450 nM	3/3
EGDQLRYYYAN	GKNNRPS	ISRDSSGHQVF	540 nM	1/3
EGDSLRMYYAN	GKNNRPS	SSEDSSGIQVF	1.6 µM	3/3
EGDSLRYYTAN	GKNNRPT	SSRDSSGMQVF	140 nM	3/3
EGDSLRYYYAN	GKENRPS	SSRDSSGHQVF	860 nM	3/3
EGDKLRYYYAN	GKNNRPS	SSRWSSGRQVF	18 µM	3/3
KGDSLRYYYAN	GKNNRPS	YSRDSSGHQVF	150 nM	3/3